For orientation: Km means the concentration of substrate that gives half-maximal velocity.

Substrate in data set [1]: Nc1nc(O)c2ncn(COC(CO)CO)c2n1
Put plainly: cells, lysate or membranes. The settings on record: other: net uptake (OCT1 minus empty vector), HEK293, 0.1-1000 µM substrate, Michaelis–Menten; pH 7.4.

Substrate in data set [2]: Nc1nnc(-c2cccc(Cl)c2Cl)c(N)n1
Nature of the data set: cells, lysate or membranes. The settings on record: other: net uptake (OCT1 minus empty vector), HEK293, 0.1-1000 µM substrate, Michaelis–Menten; pH 7.4.

B1: human OCT1*1 (wild-type) (Homo sapiens) (protein)
chain: MPTVDDILEQVGESGWFQKQAFLILCLLSAAFAPICVGIVFLGFTPDHHCQSPGVAELSQRCGWSPAEELNYTVPGLGPAGEAFLGQCRRYEVDWNQSALSCVDPLASLATNRSHLPLGPCQDGWVYDTPGSSIVTEFNLVCADSWKLDLFQSCLNAGFLFGSLGVGYFADRFGRKLCLLGTVLVNAVSGVLMAFSPNYMSMLLFRLLQGLVSKGNWMAGYTLITEFVGSGSRRTVAIMYQMAFTVGLVALTGLAYALPHWRWLQLAVSLPTFLFLLYYWCVPESPRWLLSQKRNTEAIKIMDHIAQKNGKLPPADLKMLSLEEDVTEKLSPSFADLFRTPRLRKRTFILMYLWFTDSVLYQGLILHMGATSGNLYLDFLYSALVEIPGAFIALITIDRVGRIYPMAMSNLLAGAACLVMIFISPDLHWLNIIIMCVGRMGITIAIQMICLVNAELYPTFVRNLGVMVCSSLCDIGGIITPFIVFRLREVWQALPLILFAVLGLLAAGVTLLLPETKGVALPETMKDAENLGRKAKPKENTIYLKVQTSEPSGT
Take B1: the results for the Km in data set [1] and in data set [2] were 849 ± 1560 µM and 44.4 ± 63.1 µM, respectively.

Values taken from publication PMC9687798, “Atypical Substrates of the Organic Cation Transporter 1” (Biomolecules, 2022).
